Consider one substance from patent US20260183363A1, “INHIBITION OF LUTEINIZING HORMONE (LH) ACTION AS TREATMENT OF PERIMENOPAUSAL AND POSTMENOPAUSAL SYMPTOMS AND COMPLICATIONS” (RIGSHOSPITALET, priority 2022, published 2026).

One assay concerns TERT cells. The experiment in a line: UCP1 and DIO2 expression in adipocytes after LH or hCG. The format is cell-based, human. The note with it: 48 hours exposure, two doses, compared with vehicle. The procedure: The human-derived adipocyte-cell-models used were: hMADS (from a subcutaneous depot), human Simpson-Golabi-Behmel syndrome (SGBS) preadipocyte cell strain, and TERT-hWA (from a subcutaneous neck depot). They were propagated and differentiated as briefly described here: All cells were cultured until two days post-confluence (designated day 0) where they were induced to differentiate in advanced DMEM/F12 supplemented with 2% fetal bovine serum (FBS) (Life Technologies), L-glutamine (2 mM) (Life Technologies), penicillin (62.5 μg/mL), streptomycin (100 μg/mL) Sigma-Aldrich), insulin (5 ug/mL) (Roche), examethasone (1 μM) (Sigma-Aldrich), 3-isobutyl-1-methylxanthine (0.5 mM) (Sigma-Aldrich), rosiglitazone (1 μM) (Cayman Chemical), human cortisol (1 μM) (Sigma-Aldrich) and T3 (1 nM) (Sigma-Aldrich). At day 3, the medium was refreshed with the same medium used at day 0. At day 6 and 9, the cells received Advanced DMEM/F12 supplemented with 2% FBS. At day 12, the adipocytes were defined as mature, and the percentage of differentiated cells was 50-70% based on microscopic inspection irrespective of cell model. RNA was extracted for cDNA synthesis from undifferentiated (designated day 0) and differentiated (day 12) cells and PCR was conducted using specific primers. All analyses were analyzed with student t-test or ANOVA using the corresponding control/baseline as reference value. Every p-value presented was adjusted for multiple comparisons with Dunnett's post hoc test.

For assay [1], the system named is male wild type mice (C57BL/6). The experiment in a line: Mice treated with LH, cinacalcet or hCG for 10 days. The format is in vivo. The note with it: 10 days, data not shown. The procedure: Eight weeks old male wild type mice (C57BL/6), caged at Biotest Facility, Trige, Denmark, were treated for 10 days with either: • vehicle (n=12; NaCl 0.9%×1 daily s.c.); • Cinacalcet (n=8; 30 mg/kg, ×1 daily), (Cinacalcet is in a class of medications called calcimimetics which works by signaling the body to produce less parathyroid hormone (PTH) in order to decrease the amount of calcium in the blood); • LH (n=8; 66.7 IU/kg×1 daily s.c.); • LH in combination with Cinacalcet (n=8; 66.7 IU/kg×1 daily s.c+cinacalcet orally 30 mg/kg once daily); or • hCG (n=8; 666.7 IU/kg, every other day, i.p.).
At termination, blood and urine sampling was performed, animals were sacrificed and body weight was assessed. Serum PTH was measured using commercially available ELISA kit Mouse PTH 1-84 from Immutopics. Plasma and urinary calcium and creatinine was measured using Stanbio LiquiColor (Arzenazo III) product numbers 0155 and 0430, respectively. All analyses of mice serum, urine, and organ weight were analyzed with ANOVA with control/baseline as reference value. Each p-value presented was adjusted for multiple comparisons with Dunnett's post hoc test.

Another assay concerns healthy men. Nature of the assay: Injection of 5000 IU hCG in healthy men, adrenal/pituitary, thyroid and metabolic hormones. The format is in vivo, human. The procedure:
11 healthy men and 10 men with previous testicular cancer and hemi-orchiectomy and/or testicular radiation were invited to participate in a prospective clinical trial, receiving 5000 IU hCG (Pregnyl) intramuscularly. They were followed longitudinally with blood- and urine sampling at baseline and 2, 8, 24, 72 and 120 hours after injection. All samples were drawn while fasting, except after 8 hours. Sampling and subsequent injection at baseline and sampling at 24, 72, and 120 hours were done between 8.00 am and 9.30 am. All analyses were analyzed with ANOVA with control/baseline as reference value and every p-value presented was adjusted for multiple comparisons with Dunnett's post hoc test. However, evaluation of changes in QTc interval on ECGs was available only at two time-points and therefore statistically analyzed by paired T-test.

Assay [2] has as its system person with Familial Hypocalciuric Hypercalcemia (FHH). The experiment in a line: Injection of 5000 IU hCG in a person with Familial Hypocalciuric Hypercalcemia. It counts as in vivo, human. The procedure:
11 healthy men and 10 men with previous testicular cancer and hemi-orchiectomy and/or testicular radiation were invited to participate in a prospective clinical trial, receiving 5000 IU hCG (Pregnyl) intramuscularly. They were followed longitudinally with blood- and urine sampling at baseline and 2, 8, 24, 72 and 120 hours after injection. All samples were drawn while fasting except after 8 hours. Sampling and subsequent injection at baseline and sampling at 24, 72, and 120 hours were done between 8.00 am and 9.30 am. Electro-cardiogram (ECG) was monitored at baseline and after 8 and 24 hours and QTc interval was calculated using Bazett's formula. Age, BMI and reproductive hormones on the 11 healthy men have previously been published in a baseline table. The inventors also investigated one person with an inactivating mutation in their Calcium Sensing Receptor […] heterozygote, resulting in Familial Hypocalciuric Hypercalcemia (FHH) who was evaluated in our andrological clinic fasting blood- and urine samples which were collected at baseline, 2, 24 and 72 hours after injection of 5000 IU hCG. […] Serum FSH and LH levels were also measured with Delfia, CV<5% for both. […] CTX1 (CV 8%) and P1NP (CV 8%) were both measured on IDSi10. Serum and urinal total calcium (CV 2.5%), creatinine (CV 5%), and phosphate (CV 6%), and serum calcitonin (CV 7%) and serum PTH (CV<4%) were all measured using Cobas 8000 while serum ionized calcium (CV 3%) was measured on ABL 837. Longitudinal assessment of blood- and urine samples (delta values) were calculated as fold change relative to baseline for each person with all samples' initial value starting at one. All analyses were analyzed with ANOVA with control/baseline as reference value. Every p-value presented was adjusted for multiple comparisons with Dunnett's post hoc test. However, evaluation of changes in QTc interval on ECGs was available only at two time points and therefore statistically analyzed using paired T-test.

Assay [3] has as its system male wild type mice (C57BL/6). Nature of the assay: Brown fat mass in mice treated with LH or hCG for 10 days. It counts as in vivo. The note with it: high and repeated dosing. The procedure: Eight weeks old male wild type mice (C57BL/6) caged at Biotest Facility, Trige, Denmark, were treated for 10 days with either vehicle (n=12; NaCl 0.9%×1 daily s.c.), LH (n=8; 66.7 IU/kg×1 daily s.c.), or hCG (n=8; 666.7 IU/kg, every other day, i.p.). At termination, blood and fat sampling was performed, animals were sacrificed and body weight was assessed. Danish Animal Experiments Inspectorate License no. 2019-15-0201-00236. All analyses of mice serum, urine, and organ weight were analyzed with ANOVA with control/baseline as reference value and every p-value presented was adjusted for multiple comparisons with Dunnett's post hoc test.

Consider “hCG: human chorionic gonadotropin (Pregnyl), LHCGR agonist with longer serum half-life than LH”, for which, in the assay with TERT cells, the DIO2 expression entry is “downregulated” and the UCP1 expression entry was “downregulated”. Also, in assay [1], the “calcium excretion, effect of treatment” value is on record as “did not affect calcium excretion”. In the assay on healthy men (in vivo), the ACTH suppressed is reported as 17%; the “T3 and T4 lower after hCG stimulation” value is listed as 5-8%; the TSH drop was found to be 30%; the “induced production of 17 hydroxyprogesterone” value was 100%. Also, in the assay with healthy men (in vivo), the “induced production of androstendione” value is given as more than 50%, the “suppression of IGFBP3” value is listed as 3%, the suppression of aldosterone was 38% and the suppression of cortisol is given as 27%. In the assay on healthy men (persistent (after 120 hours)), the “increase in fasting insulin” value is “up to 100%” and the “increase in serum IGF1” value is 18%. In assay [2] (2 hours upon injection, compared to healthy men), the urinary calcium excretion entry is on record as “strikingly increased”. Also, the Serum albumin result in assay [2] (after 24 hours) is given as “increased”. In addition, the “FSH and LH suppressed” value in assay [2] (after 72 hours) was “more than 60%”. The “serum ionized calcium and total calcium” value in assay [2] (after both 24 and 72 hours) is listed as “drastic drop”. Also, the sex steroids entry in assay [2] (compared with the 11 healthy men) is “large increase”. In assay [2] (in vivo), the P1NP entry is “increased”, the PTH result is “increase in PTH within the range of the healthy men” and the serum phosphate result is reported as “more pronounced decrease”. Besides, in assay [2] (still evident after 72 hours), the CTX1 result is given as “substantial increase”. Also, the brown fat mass result in assay [3] is on record as “reduced brown fat mass significantly”.
